Assay results taken from patent publication EP0588622B1, “Bleach composition” (UNILEVER PLC, priority 1992, dated 1994).

Experiments:
[1] = Dye damage of dyed cloths stirred in peroxyacid solution (Examples II and IV), reflectance at 640 nm; details: for % dye damage: peroxyacid solution 0.000525 moles/l plus EDTA, 22-24°C, 30 minutes, blue disperse dyed nylon
[2] = Dye damage in tergotometer wash with detergent base at pH 6 to 10 (Example III); details: peroxyacid 9.2x10^-4 mole/l, detergent base 4 g/l, 40°C, 30 minutes
[3] = Stain bleaching, visual assessment of stained cloths after tergotometer wash (Example V); details: score 1 smallest, 4 greatest cleaning benefit, peroxyacid 9.2x10^-4 mol l^-1, 40°C, 30 minutes
[4] = pKa determination by sodium hydroxide titration of peroxyacid solution; details: Table II

Row | SMILES | % dye damage [1] [%] | % DYE DAMAGE ([2]; pH 6) [%] | % DYE DAMAGE ([2]; pH 7) [%] | % DYE DAMAGE ([2]; pH 8) [%] | % DYE DAMAGE ([2]; pH 9) [%] | % DYE DAMAGE ([2]; pH 10) [%] | % DYE DAMAGE ([1]; method of Example II, Initial Active oxygen = 2,5x10^-4 g atoms/l, dissolved at ca. pH 10, lowered to ca. pH 4, filtered) [a) %] | Ranking ([3]; Washes at pH 9) | Ranking ([3]; Washes pH 6) | pKa [4]
1 | O=C(CC1CC2CCC1C2)OO (centres unmarked) | 8.6 | 41.1 | 41.7 | 30.7 | 9.3 | 4.8 | – | – | – | –
2 | O=C(CCCCCCCCCCC(=O)OO)OO | – | – | – | – | – | – | 30.6 | – | – | –
3 | O=C(OO)c1ccccc1 | 26.0 | – | – | – | – | – | – | 1.3 | 3 | 7.78
